The list shows a part of the results, in another mix than the full data. Activity calls are given as the source filed them. Calls follow the shape of the dose curve; as a rule, active = well fitted inhibition curve with a large enough effect; inconclusive = small, poorly fitted or top-dose-only effect, or effect the other way; inactive = flat fitted curve, though single readings scatter.

By UniProt entry, the sequences of proteins in these tests, tags left out.
UniProt O75604, whole entry: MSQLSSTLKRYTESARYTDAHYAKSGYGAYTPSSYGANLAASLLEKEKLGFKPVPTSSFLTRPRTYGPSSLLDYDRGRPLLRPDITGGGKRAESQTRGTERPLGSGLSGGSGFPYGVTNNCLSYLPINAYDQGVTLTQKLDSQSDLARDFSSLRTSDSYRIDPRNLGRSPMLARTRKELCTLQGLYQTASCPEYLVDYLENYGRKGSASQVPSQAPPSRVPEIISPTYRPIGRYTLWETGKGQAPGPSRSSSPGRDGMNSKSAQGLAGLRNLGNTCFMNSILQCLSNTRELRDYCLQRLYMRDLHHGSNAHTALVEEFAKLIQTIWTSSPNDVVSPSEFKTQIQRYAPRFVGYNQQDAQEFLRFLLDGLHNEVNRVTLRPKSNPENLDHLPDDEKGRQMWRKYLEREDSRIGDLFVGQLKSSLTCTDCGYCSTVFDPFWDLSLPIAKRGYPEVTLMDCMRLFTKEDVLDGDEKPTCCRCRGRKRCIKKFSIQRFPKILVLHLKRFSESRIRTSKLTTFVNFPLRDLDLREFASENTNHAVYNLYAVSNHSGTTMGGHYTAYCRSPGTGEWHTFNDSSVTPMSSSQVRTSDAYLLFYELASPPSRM

For the test, the target named is Ubiquitin carboxyl-terminal hydrolase 2 (Homo sapiens) (UniProt O75604). The experiment in a line: qHTS Assay for Inhibitors of Ubiquitin-specific Protease USP2a Using CHOP2 as the Reporter.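 Also: plate controls were DMSO wells for no effect and full inhibition by NEM control for full effect.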 To be noted: USP2 core, Ub-CHOP2 coupled fluorogenic reporter, 485/531; at 38.3 µM (top of the series). The text has this: NIH Molecular Libraries Screening Centers Network [MLSCN] NIH Chemical Genomics Center [NCGC] MLSCN Grant: XO1-MH079852-01 PI Name: Nicholson, Ben. Progenra Inc, Malvern, PA NCGC Assay Overview: Homeostasis of cellular proteins is maintained through a combination of synthesis and degradation. The pathway that accounts for the majority of protein degradation is the ubiquitin-proteasomal pathway. Ubiquitin (Ub) is highly conserved in all cells and the generation of a multi-Ub chain typically targets proteins for degradation by the proteasome. However, ubiquitination is highly reversible and dynamic. […] Thus, this coupled assay gives a fluorescent read-out at excitation/emission wavelengths of 485/531. […]
NCGC Assay Protocol Summary: The assay buffer, prepared fresh at the day of the assay, contains 20mM Tris-HCl pH 8.0, 2mM CaCl2, 2mM beta-Mercaptoethanol, 0.05% CHAPS. […] Plates were read after 60min RT incubation on a ViewLux (Perkin Elmer) plate reader using the following wavelengths Ex 485nm /Em 531nm. […] Concentration-response curves were fitted to the normalized data and the concentration-response curves were then classified based on curve quality (r2), response magnitude and degree of measured activity. The time zero reading was used to flag fluorescence artifacts. […]
Take `CCC(=O)N(c1ccccc1)C1(COC)CCN(CCn2nnn(CC)c2=O)CC1`: the activity change, negative = inhibition was inactive: 2.21%.

As for `CCC(=O)N(c1ccccc1)C1(COC)CCN(CCc2cccs2)CC1`, the activity change, negative = inhibition was inactive: -2.08%.

Values taken from PubChem BioAssay AID463254 (National Center for Advancing Translational Sciences (NCATS), 2010).
